pKi: −log10 of the molar value.
Key:
[1] = target: T1, D(2) dopamine receptor (Bos taurus, UniProt P20288); experiment: Binding Affinity was tested on high Affinity Site of Bovine dopamine receptor D2. Tested for ability to displace the radioligand [3H]pramipexole
[2] = target: D(2) dopamine receptor (Bos taurus) (UniProt P20288); experiment: Binding Affinity was determined for decoupling of the ternary complex of Compound to Bovine dopamine receptor D2. Tested for ability to displace the radioligand [3H]spiperone at the binding site.
[3] = target: T1, D(2) dopamine receptor; experiment: Binding Affinity was tested on low Affinity Site of Bovine dopamine receptor D2. Tested for ability to displace the radioligand [3H]spiperone at the binding site.
[4] = target: T1, D(2) dopamine receptor; experiment: Dissociation constant of compound on one-site model Bovine dopamine receptor D2. Tested for ability to displace the radioligand [3H]spiperone at the binding site.
[5] = target: T1, D(2) dopamine receptor; experiment: Binding Affinity was tested on high Affinity Site of Bovine Dopamine D2 Receptor. Tested for ability to displace the radioligand [3H]-Spiperone
[6] = target: D(1A) dopamine receptor (Bos taurus, UniProt Q95136); experiment: Binding Affinity was tested on High Affinity Site of Bovine dopamine receptor D1. Tested for ability to displace the radioligand [3H]-SCH- 23390

Amino acid sequences for entries named in this document (tags omitted).
UniProt Q95136, whole entry: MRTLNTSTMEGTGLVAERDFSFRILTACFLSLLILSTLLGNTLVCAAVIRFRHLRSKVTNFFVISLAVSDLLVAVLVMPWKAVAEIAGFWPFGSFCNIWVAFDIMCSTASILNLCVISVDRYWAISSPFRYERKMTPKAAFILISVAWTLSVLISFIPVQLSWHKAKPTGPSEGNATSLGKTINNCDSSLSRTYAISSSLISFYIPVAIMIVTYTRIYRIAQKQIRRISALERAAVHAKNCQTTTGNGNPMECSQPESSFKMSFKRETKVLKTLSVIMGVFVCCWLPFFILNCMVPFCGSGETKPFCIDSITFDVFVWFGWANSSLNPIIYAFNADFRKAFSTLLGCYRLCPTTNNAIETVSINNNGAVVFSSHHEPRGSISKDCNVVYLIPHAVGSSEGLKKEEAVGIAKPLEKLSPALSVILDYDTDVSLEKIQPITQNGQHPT

`C#CC1=CCC(N(CCC)CCC)CC1` (stereo unspecified) showed a pKi [1] of 7.82, a pKi [2] of 4.77 and a pKi [3] of 5.39. For the same compound, the pKi [4] was 6.12, the pKi [5] was 7.24 and the pKi [6] was under 4.70.

Reference: ChEMBL document CHEMBL1133710 (J Med Chem, 2000)
